Experimental data from PubChem BioAssay AID493011 (Sanford-Burnham Center for Chemical Genomics, 2011).
This is a selection; strong and weak results do not stand in their true shares. Some of these compounds have results that are not shown, active ones among them. Active and inactive are the calls of the source.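 The calls were made as follows: active = at least 40% inhibition at 20 µM here, with at most 30% in a related deaminase screen; inactive = the rest.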

By UniProt entry, the sequences of proteins in these tests, tags left out.
UniProt P31941, whole entry: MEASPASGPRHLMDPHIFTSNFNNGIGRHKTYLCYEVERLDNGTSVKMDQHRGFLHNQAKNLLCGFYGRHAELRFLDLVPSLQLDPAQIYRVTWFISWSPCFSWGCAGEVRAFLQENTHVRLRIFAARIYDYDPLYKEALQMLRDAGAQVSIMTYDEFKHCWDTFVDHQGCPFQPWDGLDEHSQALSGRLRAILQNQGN

Biological target: DNA dC->dU-editing enzyme APOBEC-3A (Homo sapiens) (UniProt P31941)
Assay: APOBEC3A ssDNA deaminase inhibitors, primary screen, selectivity assay for APOBEC3G inhibitor project, biochemical, FAM/TAMRA oligo cleavage fluorescence (AID 493011);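 also: plate controls were A3A with DMSO for no effect and wells lacking A3A enzyme for full effect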
Details: recombinant A3A, FAM/TAMRA ssDNA deamination fluorescence; at 20 µM; hits give high values

SMILES | inhibition
CCN1CCCC(OC(=O)C2(O)c3ccccc3C=Cc3ccccc32)C1 (centres undefined) | inactive: 1.74%
Cc1cc(C(=O)NCC2(N3CCCCC3)CCCCC2)ccc1[N+](=O)[O-] | inactive: 4.49%
O=C(NCC1(N2CCCCC2)CCCCC1)c1cccc(Br)c1 | inactive: -4.12%
COc1ccc(C(=O)NCC2(N(C)C)CCCCC2)cc1 | inactive: -3.89%
C=CCN1CCN(CCOC(=O)C(O)(c2ccccc2)c2ccccc2)CC1 | inactive: -1.08%
O=C(NCC1(N2CCCCC2)CCCCC1)c1cc(F)c(F)cc1Cl | inactive: 0.623%
Cc1ccccc1C(=O)NCC1(N2CCCCC2)CCCCC1 | inactive: 5.13%
CN(C)c1ccc(C(=O)NCC2(N(C)C)CCCCC2)cc1 | inactive: 0.373%
CN(C)C1CCCC1OC(=O)C(O)(c1ccccc1)c1ccccc1 (centres undefined) | inactive: -2.77%
Cc1ccc(C(=O)NCC2(N3CCCCC3)CCCCC2)cc1 | inactive: -4.74%
CC(C)N1C(=O)CC2(CCN(CCOC(=O)C(O)(c3ccccc3)c3ccccc3)CC2)C1=O | inactive: -1.34%
CCN(CC)CC(C)C(C)OC(=O)C(O)(c1ccccc1)c1ccccc1 (centres undefined) | inactive: 3.03%
COc1cc(SC)ccc1C(=O)NCC1(N(C)C)CCCCC1 | inactive: 4.02%
CN1[C@@H]2CC[C@H]1CC(OC(=O)C(O)(c1ccccc1)c1ccccc1)C2 (some centres undefined) | inactive: 2.69%
O=C(NCC1(N2CCCCC2)CCCCC1)c1cc([N+](=O)[O-])ccc1Cl | inactive: 2.15%
CN(C)c1cccc(C(=O)NCC2(N(C)C)CCCCC2)c1 | inactive: 0.87%
CC(C)Oc1ccc(C(=O)NCC2(N(C)C)CCCCC2)cc1 | inactive: -5.06%
COc1ccc(Br)c(C(=O)NCC2(N3CCCCC3)CCCCC2)c1 | inactive: 6.28%
O=C(OC1CN2CCC1CC2)C(CO)(c1ccccc1)c1ccccc1 (centres undefined) | inactive: -4.02%
O=C(NCC1(N2CCCCC2)CCCCC1)c1cccc(Cl)c1 | inactive: -1.34%
COc1cccc(C(=O)NCC2(N3CCCCC3)CCCCC2)c1 | inactive: 3.07%
COc1ccc(Cl)cc1C(=O)NCC1(N(C)C)CCCCC1 | inactive: 6.23%
COc1cc(C(=O)NCC2(N(C)C)CCCCC2)c([N+](=O)[O-])cc1OC | inactive: -3.73%
CN(C)C1(CNC(=O)c2ccc(Br)cc2)CCCCC1 | inactive: 5.69%
